Reference: patent publication US20150374749A1
pIC50: −log10 of the molar value. Some compounds may have been tested in ways that are not shown here.

Columns and labels:
[1] = test system: isolated rat uterus preparations; assay: Organ bath study of spontaneous and Ca2+-induced contraction of isolated rat uterus
Method: FIG. 2: Spontaneous and Ca^2+ induced contractile activity of rat uteri treated with H2S (A) or SNP (B). The contractile activity was expressed as the relative ratio between the mean height peak of the untreated control and the treated uteri. The data are expressed as the mean±SEM (n=8). (C) The effects of 1 mM H2S, 1 mM SNP and the combination of both on the spontaneous and Ca^2+ induced uterus contractions.
The effects of H2S, SNP and their combination on the spontaneous and Ca^2+-induced contraction of isolated rat uterus preparations were tested. This particular pharmacological model was chosen because, unlike other models, it is relatively resistant (at high millimolar concentration) to SNP-induced dilatation (Hennan, J. K. et al., 1998) but still sensitive to other, real NO donors (Demirkoprulu, N. et al., 2005), which makes it suitable for testing the potential NO release from the SNP and H2S reaction mixture.
Isolated uteri from virgin Wistar rats (200-250 g) in the oestrus phase of the estrous cycle, as determined by examining a daily vaginal lavage, were used (Appiah, I. et al., 2010). All of the rats were sacrificed by cervical dislocation following a procedure approved by the animal protection authorities (University of Belgrade, Serbia). […] The myometrial tension was recorded isometrically using a TSZ-04-E isolated organ bath and transducer (Experimetria, Budapest, Hungary). […]

[2] = test system: HUVEC; assay: Intracellular HNO detection with fluorescent sensor CuBOT1; details: 100 μM, 15 min
Method: FIG. 11: Intracellular fluorescence in HUVECs, caused by HNO formation. After loading with the HNO sensor, CuBOT1, the cells were treated with either 100 μM Na2S, 100 μM SNP, or a combination of both. The photomicrographs were taken at a ×40 magnification. […] .
It was further sought to confirm the formation of HNO from the SNP and H2S mixture in a biological milieu. To accomplish this goal, a recently developed Cu^2+-based fluorescent sensor, CuBOT1, was used for the intracellular HNO detection (Rosenthal, J. et al., 2009).
Human umbilical vein endothelial cells (HUVEC, passage 2-3) were obtained from PromoCell GmbH (Heidelberg, Germany) and cultured in 35 mm μ-dishes (ibidi, Martinsried, Germany) using a commercially available cell growth medium (PromoCell GmbH) at 37° C. and 5% CO2. For NO detection, the cells were preloaded for 10 min with 10 μM 4-amino-5-methylamino-2′,7′-difluorofluorescein diacetate (DAF-FM-DA). For HNO detection, the HUVECs were incubated for 20 min with 10 μM CuBOT1 (Rosenthal, J. et al., 2009; Filipovic, M. R. et al., 2012, b). For both NO detection and HNO detection, the HUVECs were then washed three times and treated with 100 μM SNP, 100 μM H2S or the mixture of both for 15 min. Fluorescence microscopy was performed using an inverted microscope (Axiovert 40 CLF, Carl Zeiss) equipped with green fluorescent filters and an AxioCam. […]

[3] = test system: CGRP release from isolated mouse heart; assay: Ex-vivo release of CGRP from isolated heart (enzyme immunoassay); details: 1 mM H2S, 500 μM SNP or both; 5 min at 37° C.
Method: FIG. 13: HNO-induced release of CGRP from an isolated mouse heart upon stimulation with a reaction mixture containing 500 μM SNP and 1 mM Na2S.
The primary proposed biological marker for HNO formation is the increased release of calcitonin gene-related peptide (CGRP), a potent vasodilator (Paolocci, N. et al., 2001). CGRP is a neuropeptide for chemosensory primary afferent nerve fibers located in the epicardial surface of the heart.
The release of CGRP from the isolated heart of C57BL/6 mice was measured as reported in Strecker, T. et al., 2006. Briefly, the mice were suffocated in a pure CO2 atmosphere and the complete heart was excised by cutting the central blood vessels. The procedures were approved by the animal protection authorities (of the “Regierung von Mittelfranken”, Ansbach, Germany). The hearts were passed through a series of synthetic interstitial fluid incubations both with and without the addition of the test compounds (H2S alone, SNP alone, or the combination of H2S and SNP) and spent 5 min in each test tube at 37° C. The CGRP concentration was measured via enzyme immunoassay (Bertin Pharma, Montigny, France).

[4] = Amperometric detection of NO release with NO-sensitive electrode
Method: FIG. 1: SNP efficiently removes H2S from the solution without any NO release. (A) The NO electrode trace of the reaction between H2S and SNP. The upper panel represents the response of the NO electrode (in the dark) to the addition of 100 μM SNP in a buffered solution (straight line), and the response upon the addition of 100 μM of both Na2S and CuCl2 (dashed line). […] . The electrode response to SNP in the absence of light is shown for comparison (straight line). […] . The straight lines represent the corresponding responses upon the addition of only SNP. The points in time at which H2S or CuCl2 were added are marked with arrows. The small arrow at the bottom of each panel denotes the point in time at which SNP was added. (B) H2S electrode traces for the reaction of H2S with SNP. A 50 μM Na2S solution was injected into a 300 mM phosphate buffer at a pH 7.4 under aerobic conditions followed by the injection of an equimolar amount of SNP.
To both test the hypothesis of stable S-nitrosothiol formation and determine the actual source of the NO release, the reaction between SNP and H2S was followed using an NO-sensitive electrode both in the total absence of light and under ambient light. The fate of NO was monitored throughout the course of the reaction using ISO-NO probes connected to a Free Radical Analyzer (World Precision Instruments) (Filipovic, M. R. et al., 2012, b).

In the case of Sodium nitroprusside, the “effect on spontaneous muscle contraction” value ([1]; SNP alone, 1-20 mM) was “little effect”, the pIC50 ([1]; read-out: IC50 for the Ca2+-induced contractions, Ca2+ (6 mM) contracted rat uterus) was 2.00 and the “change in fluorescent intensity of HNO sensor CuBOT1” value [2] was “Neither H2S alone nor SNP alone caused any detectable change”. For the same substance, the “CGRP release from isolated mouse heart” value [3] was “small increase”, the “NO release under visible light source (500-550 nm)” value ([4]; 1 mM SNP, with or without 1 mM H2S, irradiated) was “released substantial amounts of NO” and the “NO release under ambient light” value ([4]; ambient light) was “Minor amounts of NO were released”. For the same substance, the “NO release in the dark” value ([4]; total absence of light, buffered solution) was “no release of NO”.
